Results published in paper PMC10622513, “A fluorogenic, peptide-based probe for the detection of Cathepsin D in macrophages” (Communications Chemistry, 2023).

Amino acid sequences for entries named in this document (tags omitted). Residues count along the entry.
UniProt P07339, 65-412: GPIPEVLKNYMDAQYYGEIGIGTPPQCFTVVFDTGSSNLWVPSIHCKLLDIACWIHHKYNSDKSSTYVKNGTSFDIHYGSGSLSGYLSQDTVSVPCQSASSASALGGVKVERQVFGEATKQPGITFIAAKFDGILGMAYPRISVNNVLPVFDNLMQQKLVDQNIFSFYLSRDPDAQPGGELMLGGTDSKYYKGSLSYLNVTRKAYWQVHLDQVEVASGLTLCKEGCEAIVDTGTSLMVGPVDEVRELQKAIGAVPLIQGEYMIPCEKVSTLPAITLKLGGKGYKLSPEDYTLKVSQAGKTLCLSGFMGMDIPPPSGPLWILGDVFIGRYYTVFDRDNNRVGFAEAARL

Target: T1, CatD (Homo sapiens, UniProt P07339)
T1 construct: purchased Athens Biotechnology
Assay: Inhibition of CatD activation of CatD-P3 (Fig. 3b)
Format: biochemical
Conditions: Pepstatin A 20 μM, CatD 50 nM, CatD-P3 20 μM, n = 3
Method: The time-dependent increase in fluorescence was monitored over 1 or 2 h using a fluorescence microplate reader at 37 °C. CatD-P3 (20 μM), 50 mM NaOAc, pH 4.0 buffer, enzymes (5 or 50 nM) and inhibitor Pepstatin A, where appropriate, were incubated in the wells for 30 min at 37 °C before adding the probe. Readings were taken immediately after addition of the probe and after every 30 s (the plate was shaken for 3 s before the start of the readings).
Probe CatD-P3 (20 μM) was incubated with or without Cat D (50 nM) in presence of absence of pepstatin A (20 μM), in the corresponding reaction buffer for 1.5 h. The mixture (25 μL) was then diluted to a final volume of 150 μL in a quartz cuvette. Emission spectrum readings were recorded in a spectrofluorometric range from 500 to 700 nm, with an excitation wavelength of 490 nm.

inhibition of CatD-P3 activation by CatD: efficiently inhibited
Substance: Pepstatin A
